Measured values published in ChEMBL document CHEMBL6083286, “Discovery of ERD-12310A as an Exceptionally Potent and Orally Efficacious PROTAC Degrader of Estrogen Receptor α (ERα)” (J Med Chem, 2024).

By UniProt entry, the sequences of proteins in these tests, tags left out. Where a name states a change or a piece, a line headed by the entry shows the natural chain unless it says otherwise.
UniProt Q96SW2: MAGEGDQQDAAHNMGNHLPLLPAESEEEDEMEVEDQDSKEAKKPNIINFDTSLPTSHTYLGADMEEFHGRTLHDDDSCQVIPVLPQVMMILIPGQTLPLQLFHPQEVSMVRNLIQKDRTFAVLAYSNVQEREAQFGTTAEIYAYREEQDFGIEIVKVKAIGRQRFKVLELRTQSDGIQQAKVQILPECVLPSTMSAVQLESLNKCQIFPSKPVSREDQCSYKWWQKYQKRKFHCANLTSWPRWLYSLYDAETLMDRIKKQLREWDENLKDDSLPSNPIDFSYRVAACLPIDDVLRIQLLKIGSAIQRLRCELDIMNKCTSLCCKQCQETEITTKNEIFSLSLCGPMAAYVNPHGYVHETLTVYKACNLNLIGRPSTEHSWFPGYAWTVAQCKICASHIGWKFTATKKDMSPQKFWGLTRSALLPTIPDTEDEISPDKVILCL

Biological target: Protein cereblon (Homo sapiens, UniProt Q96SW2)
Experiment: Binding affinity to wild type GST-tagged human CRBN by HTRF assay

| IC50 [nM] | Structure (SMILES) |
| --- | --- |
| 2700 | CN1CC2(CCNCC2)c2ccc3c(c21)CN([C@H]1CCC(=O)NC1=O)C3=O |
| 2690 | O=C1CC[C@H](N2Cc3c(ccc4c3NCC43CCNCC3)C2=O)C(=O)N1 |
